Patent US6566088B1, “Prolyl-4-hydroxylases” (Board of Regents, The University of Texas System, priority 2001, dated 2003)

Amino acid sequences for entries named in this document (tags omitted). Chains listed by the source or under a name are the forms on record and can include a tag or linker.
UniProt Q9GZT9, with tags, fused parts or gaps DEL76-177: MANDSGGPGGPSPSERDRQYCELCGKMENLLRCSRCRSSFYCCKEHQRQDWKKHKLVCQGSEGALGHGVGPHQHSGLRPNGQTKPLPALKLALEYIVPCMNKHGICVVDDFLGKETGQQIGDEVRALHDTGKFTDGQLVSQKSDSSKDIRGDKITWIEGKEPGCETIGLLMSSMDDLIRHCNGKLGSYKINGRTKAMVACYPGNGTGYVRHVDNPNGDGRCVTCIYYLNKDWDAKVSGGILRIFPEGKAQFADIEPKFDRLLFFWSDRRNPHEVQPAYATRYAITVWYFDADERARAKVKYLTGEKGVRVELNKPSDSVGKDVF

Target: T1, HPH 2 (Homo sapiens, UniProt Q9GZT9, DEL76-177)
T1 construct: MBP (N); made in house; host or cells: E. coli BL21-CodonPlus-RIL
Assay: Activity of purified recombinant HPH 2 on HIF-1a peptide substrate
Type: biochemical

`O=C(O)CCC(=O)C(=O)O` [2-oxoglutarate] was tested, and the “effect on activity of the HPH 2 enzyme” value was “greatly stimulated”.
